Measured values published in paper PMC9523135, “Apamin structure and pharmacology revisited” (Frontiers in Pharmacology, 2022).

Key:
Conditions in all cases: lowest concentration causing 100% growth inhibition; 24 h, 37°C; n = 5
[1] = system: P. aeruginosa; assay: Antimicrobial assay, microtitre broth dilution, P. aeruginosa; format: cell-based, Pseudomonas aeruginosa ATCC 27853
Experimental: (§1) Apamin was tested against Gram-positive (Enterococcus faecalis ATCC 29212, Staphylococcus aureus subsp. aureus ATCC 29213) and Gram-negative bacteria (Escherichia coli ATCC 25922, Pseudomonas aeruginosa ATCC 27853) following the previously described modification of the microtitre broth dilution method ([Vassilevski et al., 2010]). Those bacterial strains were also subjected to the treatment by melittin in the same concentration range to serve as a positive control.
(§2) Briefly, bacteria were cultured in a low-salt LB medium. The two-fold microtitre broth dilution assay was carried out in 96-well sterile plates in a final volume of 100 μL. Mid-exponential-phase cultures were diluted to a final concentration of 10^5 colony-forming units·ml^−1. Pure peptides were dissolved in 10 μL of water and added to 90 μL of the bacterial dilution. The samples, a non-treated control and a sterility control were tested in five independent experiments (n = 5). The microtitre plates were incubated for 24 h at 37°C, and growth inhibition was determined by measuring the absorbance at 620 nm. Minimum inhibitory concentration (MIC) is expressed as the lowest concentration of peptide that caused 100% bacterial growth inhibition.

[2] = system: E. coli; assay: Antimicrobial assay, microtitre broth dilution, E. coli; format: cell-based, Escherichia coli ATCC 25922
Experimental: as §1, §2

[3] = system: S. aureus; assay: Antimicrobial assay, microtitre broth dilution, S. aureus; format: cell-based, Staphylococcus aureus subsp. aureus ATCC 29213
Experimental: as §1, §2

CC[C@H](C)[C@H](NC(=O)CN)C(=O)NCC(=O)N[C@@H](C)C(=O)N[C@H](C(=O)N[C@@H](CC(C)C)C(=O)N[C@@H](CCCCN)C(=O)N[C@H](C(=O)N[C@@H](CC(C)C)C(=O)N[C@H](C(=O)N[C@H](C(=O)NCC(=O)N[C@@H](CC(C)C)C(=O)N1CCC[C@H]1C(=O)N[C@@H](C)C(=O)N[C@@H](CC(C)C)C(=O)N[C@H](C(=O)N[C@@H](CO)C(=O)N[C@@H](Cc1c[nH]c2ccccc12)C(=O)N[C@H](C(=O)N[C@@H](CCCCN)C(=O)N[C@@H](CCCNC(=N)N)C(=O)N[C@@H](CCCCN)C(=O)N[C@@H](CCCNC(=N)N)C(=O)N[C@@H](CCC(N)=O)C(=O)N[C@@H](CCC(N)=O)C(N)=O)[C@@H](C)CC)[C@@H](C)CC)[C@@H](C)O)[C@@H](C)O)C(C)C)C(C)C [Melittin]
MIC [1]: 6 µM (≈ 17.1 µg/mL) | MIC [2]: 1.5 µM (≈ 4.27 µg/mL) | MIC [3]: 3 µM (≈ 8.54 µg/mL)

Values after ≈ are worked out from the molar mass of the structure shown.
